The compounds below were run against δ-opioid receptor (Rattus norvegicus, UniProt P33533) (assay: Rat Brain δ-Opioid Receptor Binding Assay ([3H]DPDPE, forebrain membranes)). Details: binding to the δ-opioid receptor, 25°C.

| Structure (SMILES) | Ki [µM] |
| --- | --- |
| CCCN1CCC(N(c2ccccc2)c2ccc(C(=O)N(CC)CC)cc2)CC1 | 0.025 |

These compounds were tested against opioid delta receptor (Homo sapiens, UniProt P41143) (assay: High Throughput Screening Assay for Delta-Opioid Receptor Binding ([3H]bremazocine competition, CHO cell membranes)). Details: percent inhibition of control binding at 25 µM test compound; [3H]bremazocine 2.4 nM; cloned human receptor in CHO cell membranes.

| Structure (SMILES) | %1 @ 25 µM [%] |
| --- | --- |
| CN1CCC(N(c2ccc(C(=O)N3CCOCC3)cc2)c2cccc(F)c2)CC1 | 77 |
| CCCN1CCC(N(c2ccccc2)c2ccc(C(=O)N(CC)CC)cc2)CC1 | 94 |
| CCCN1CCC(N(c2ccc(C(=O)N3CCCC3)cc2)c2cccc(Cl)c2)CC1 | 101 |
| CCN(CC)C(=O)c1ccc(N(c2ccccc2)C2CCN(C)CC2)cc1 | 100 |
| COc1cccc(N(c2ccc(C(=O)N3CCOCC3)cc2)C2CCN(C)CC2)c1 | 70 |
| CCN1CCC(N(c2ccc(C(=O)N(C(C)C)C(C)C)cc2)c2cccc(F)c2)CC1 | 88 |
| CCN(CC)C(=O)c1ccc(N(c2ccccc2)C2CCN(Cc3ccccc3)CC2)cc1 | 99 |
| CN1CCC(N(c2ccccc2)c2ccc(C(=O)N3CCOCC3)cc2)CC1 | 93 |
| CCCN(CCC)C(=O)c1ccc(N(c2ccccc2)C2CCN(C)CC2)cc1 | 101 |
| CCN1CCC(N(c2ccc(C(=O)N3CCCC3)cc2)c2cccc(F)c2)CC1 | 87 |
| CCCN(CCC)C(=O)c1ccc(N(c2cccc(OC)c2)C2CCN(C)CC2)cc1 | 100 |
| CCN(C)C(=O)c1ccc(N(c2cccc(F)c2)C2CCN(C)CC2)cc1 | 96 |
| CCN1CCC(N(c2ccccc2)c2ccc(C(=O)N3CCCC3)cc2)CC1 | 88 |
| CCN1CCC(N(c2ccccc2)c2ccc(C(=O)N3CCCCC3)cc2)CC1 | 92 |
| CCCN(CCC)C(=O)c1ccc(N(c2ccccc2)C2CCN(CC)CC2)cc1 | 100 |
| CC(C)N(C(=O)c1ccc(N(c2cccc(F)c2)C2CCN(C)CC2)cc1)C(C)C | 97 |
| CCN1CCC(N(c2ccc(C(=O)N3CCCCC3)cc2)c2cccc(F)c2)CC1 | 89 |
| COc1cccc(N(c2ccc(C(=O)N(C(C)C)C(C)C)cc2)C2CCN(C)CC2)c1 | 98 |
| CCCN1CCC(N(c2ccc(C(=O)N(CC)CC)cc2)c2cccc(OC)c2)CC1 | 97 |
| CCN(C)C(=O)c1ccc(N(c2cccc(OC)c2)C2CCN(C)CC2)cc1 | 95 |
| CCCN(CCC)C(=O)c1ccc(N(c2cccc(F)c2)C2CCN(C)CC2)cc1 | 100 |
| CCN1CCC(N(c2ccc(C(=O)N(C)CC)cc2)c2cccc(F)c2)CC1 | 97 |

| Structure (SMILES) | %1 @ 25 µM [%] |
| --- | --- |
| CC(C)N(C(=O)c1ccc(N(c2ccccc2)C2CCN(C)CC2)cc1)C(C)C | 100 |
| CCCN(CCC)C(=O)c1ccc(N(c2cccc(F)c2)C2CCN(CC)CC2)cc1 | 101 |
| CCCN1CCC(N(c2ccccc2)c2cccc(C(=O)N(C)c3ccccc3)c2)CC1 | 41 |
| CCN(CC)C(=O)c1ccc(N(c2cccc(F)c2)C2CCN(C)CC2)cc1 | 97 |
| CN1CCC(N(c2ccc(C(=O)N3CCCC3)cc2)c2cccc(F)c2)CC1 | 85 |
| CN1CCC(N(c2ccccc2)c2ccc(C(=O)N3CCCC3)cc2)CC1 | 81 |
| CCN1CCC(N(c2ccccc2)c2ccc(C(=O)N3CCOCC3)cc2)CC1 | 64 |
| CN1CCC(N(c2ccc(C(=O)N3CCCCC3)cc2)c2cccc(F)c2)CC1 | 85 |
| CCN(C)C(=O)c1ccc(N(c2ccccc2)C2CCN(C)CC2)cc1 | 95 |
| CCN1CCC(N(c2ccccc2)c2ccc(C(=O)N(CC)CC)cc2)CC1 | 100 |
| COc1cccc(N(c2ccc(C(=O)N3CCCC3)cc2)C2CCN(C)CC2)c1 | 91 |
| CCN1CCC(N(c2ccccc2)c2ccc(C(=O)N(C(C)C)C(C)C)cc2)CC1 | 100 |
| CCN1CCC(N(c2ccccc2)c2ccc(C(=O)N(C)CC)cc2)CC1 | 98 |
| CCN1CCC(N(c2ccc(C(=O)N(CC)CC)cc2)c2cccc(F)c2)CC1 | 98 |
| COc1cccc(N(c2ccc(C(=O)N3CCCCC3)cc2)C2CCN(C)CC2)c1 | 89 |
| CN1CCC(N(c2ccccc2)c2ccc(C(=O)N3CCCCC3)cc2)CC1 | 68 |
| CCN1CCC(N(c2ccc(C(=O)N3CCOCC3)cc2)c2cccc(F)c2)CC1 | 64 |
| CCN(CC)C(=O)c1ccc(N(c2cccc(OC)c2)C2CCN(C)CC2)cc1 | 98 |
| CCCN1CCC(N(c2ccc(C(=O)N(CC)CC)cc2)c2cccc(OC(C)=O)c2)CC1 | 100 |
| CCCN1CCC(N(c2ccc(C(=O)N(CC)CC)cc2)c2cccc(Cl)c2)CC1 | 102 |
| CCCN1CCC(N(c2ccc(C(=O)N(CC)CC)cc2)c2ccccc2OC)CC1 | 100 |

Reference: patent publication EP1049676B1, “4- ARYL(PIPERIDIN-4-YL)] AMINOBENZAMIDES WHICH BIND TO THE DELTA-OPIOID RECEPTOR” (dated 1999)
